Literature values as cited in patent publication US8875704B2, “Nasal administration” (priority 2007, dated 2014).

Tests used:
[1] = powders in a starch formulation, rabbits; cited from earlier work
[2] = intranasal, particularly after multiple administrations; cited from earlier work
[3] = intranasal, dimethyl beta cyclodextrin as absorption enhancer, rabbits; cited from earlier work

Substance: insulin
- bio-availability, deposition posterior to the nasal valve versus anterior deposition [1]: lower bio-availability
- bio-availability of powder formulations with longer residence times [2]: reduced bio-availability
- peak plasma concentration Cmax, powder versus liquid formulation [3]: greater
